Test results published in patent US20040077651A1, “Remedies for cancer” (priority 2000, published 2004).

By UniProt entry, the sequences of proteins in these tests, tags left out. Residues count along the entry.
UniProt O15496, 43-165 limits assumed: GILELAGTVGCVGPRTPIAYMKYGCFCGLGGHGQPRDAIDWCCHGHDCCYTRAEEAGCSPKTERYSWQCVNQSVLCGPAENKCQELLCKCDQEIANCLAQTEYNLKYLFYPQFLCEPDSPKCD

Tests used:
[1] = target: T1, Human type-X sPLA2 (Homo sapiens, UniProt O15496); assay: Type-X sPLA2-induced PGE2 production in HT-29 cells; conditions: HT-29 cells pretreated with TNF-α; compound 10 μM; 100 nM human type-X sPLA2, 3 h at 37° C.; percentage of PGE2 produced by type-X sPLA2 (no treatment group = 100)
[2] = target: T1, Human type-X sPLA2; assay: Human type-X sPLA2-induced oleic acid release in HT-29 cells; conditions: compound 10 μM, 100 nM human type-X sPLA2, 30 min at 37° C., percentage of the increase caused by type-X sPLA2 (no treatment group = 100)

- PGE2 production [1]: -4.1 ··
- Oleic acid release [2]: -3 ··
SMILES: CCc1c(C(=O)C(N)=O)c2c(OCC(=O)O)nc(C)cn2c1Cc1cccc(-c2ccccc2)c1
